# Results reported in patent US20230390274A1 (EPIRIUM BIO INC., priority 2020, published 2023).
# Protein sequences, listed by entry. Tags and fused reporters are not part of them.
# UniProt P15428, whole entry: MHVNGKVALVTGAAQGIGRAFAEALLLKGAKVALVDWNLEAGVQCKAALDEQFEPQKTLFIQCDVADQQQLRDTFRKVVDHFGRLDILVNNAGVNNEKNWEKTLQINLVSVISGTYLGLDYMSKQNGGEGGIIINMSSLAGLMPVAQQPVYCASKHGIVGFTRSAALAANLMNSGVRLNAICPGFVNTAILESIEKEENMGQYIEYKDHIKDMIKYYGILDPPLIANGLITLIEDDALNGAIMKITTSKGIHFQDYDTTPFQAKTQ
# Biological target: 15-PGDH/HPGD (Homo sapiens (Human), UniProt P15428)
# Assay: hPGDH inhibitor screening biochemical assay
# Conditions: read-out: hPGDH: Average IC50; 10 nM 15-PGDH/HPGD, 15 μM PGE2, 0.25 mM NAD
# Procedure: A hydroxyprostaglandin dehydrogenase inhibition screening biochemical assay can be performed to assess the synthesized inhibitors provided herein. Provided herein is an exemplary biochemical assay for hPGDH inhibitor screening.
# The in vitro biochemical assay can be performed in white, 384 plates in total 20 μl reaction volume consisting of 10 nM of 15-PGDH/HPGD (R&D System #5660-DH), 15 μM Prostaglandin E2 (Sigma, Cat #P5640-10MG) and 0.25 mM β-Nicotinamide adenine dinucleotide sodium salt (Sigma, Cat #N0632-5G) made in reaction buffer (50 mM Tris-HCl, pH 7.5, 0.01% Tween 20) at 10-point dose response curve for test/tool compounds. Briefly, 5 μl (4×) of compounds solution and 5 μl (final concentration, 10 nM) of enzyme solution is added to white 384 well plates and incubated for 10 mins at 37° C. 5 μl (4×) of Prostaglandin E2 and 5 μl (4×) of β-Nicotinamide adenine dinucleotide sodium salt is added to the wells and incubated for 10 mins at rt. Fluorescence is recorded at ex/em=340 nm/485 nm. The percentage (%) inhibition of enzyme activity was determined relative to […] (1% DMSO) and IC50 was calculated using GraphPad prism software (four parameter-variable slope equation).
row,IC50 [nM],Compound
1,< 100,O=C(NC1CCS(=O)(=O)CC1)c1ccc(-n2ccc3cc(C(=O)N4CCC(F)(F)CC4)cnc32)cc1
2,100 to 1000,O=C(c1cnc2c(c1)ncn2-c1ccc(OC(F)F)cc1)N1CCC(F)CC1
3,100 to 1000,COc1ccc(-n2nc(Cl)c3cc(C(=O)N4CCC(F)CC4)ccc32)cc1
